System: BW 5174 (thymoma of AKR mouse)
Assay: Cytotoxicity test (51Cr release) of spleen and intraperitoneal cells of Eisenin-administered mice
Format: cell-based
Method: Balb/C mice were intraperitoneally administered with 15 mg of Eisenin, and the control group was administered with starch. Further, the target cell employed was BW 5174 (thymoma of AKR mouse). The spleen cells and the intraperitoneal cells were respectively divided into the adherent cells and the non-adherent cells, and cytotoxicity was examined in each case.
(1) Percent Cytotoxicity (%) in Table 3 is based on the following
(2) Measurement is made by ^51 Cr release assay. (3) Acute Toxicit

## L-Pyroglu-L-Gln-L-Ala [Eisenin]
Intraperitoneal cells, total, Balb/C mice i.p. 15 mg Eisenin, 51Cr release
  Percent Cytotoxicity, Intraperitoneal Cells Total: 24%
Spleen cells
  difference in cytotoxicity versus control group, spleen cells: no significant difference
